# PGC1a acetyl inh = lowers PGC1a acetylation signal in U2OS cells | AlphaScreen anti-acetyl-lysine; with virally co-expressed GCN5 acetyltransferase | inhibition, % at 15.6 µM | 350,000 tested, 0.17% active | AID 651687;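 active means every replicate shows inhibition of at least 40%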;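 further: 0% = neutral control wells and 100% = positive control wells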
# HIV Env fusion = HIV envelope-mediated fusion inhibition. inhibition, % at 12.3 µM. HeLa-JRFL Env/CEM21 cell fusion, luciferase. 360,000 tested, 1.1% active;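 active means mean replicate inhibition score of at least 50 and every replicate individually at or above 50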;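 further: 0% = plate neutral controls and 100% = maraviroc near 300 nM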
# miR122 inh = blocks miR-122 activity in Huh7 sensor cells; AID 602342; Huh7 miR-122 Renilla luciferase sensor, 48 h; neutral wells = 0, positive control = 100; activation (reporter increase), % at 12.5 µM; 340,000 tested, 0.3% active;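 active means mean replicate activation score at least 90 and every replicate individually at or above 90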;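 further: higher luciferase means less miR-122 activity so hits act as miR-122 inhibitors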
# Cneo AK release = causes C. neoformans cell lysis; adenylate kinase release luminescence, 4 h; normalised: neutral wells 0, clomiphene wells 100; lysis activity, % at 15 µM; 360,000 tested, 0.2% active;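 active means mean lysis activity across replicates of at least 80%, whatever share of replicates individually reach that level; inactive means mean lysis activity below 80%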
#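 Assay system: log-phase C. neoformans yeast / Quantity: yeast cell density of 5 × 10^6 cells/mL / Medium: fresh YPD growth medium / Compound: single dose / Timing: static 4 h at 37 °C with compound, 1 h detection / Measured by: adenylate kinase release luminescence / Read-out: lysis from increased AK signal / Benchmarks: Clomiphene as positive lysis control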
# Yeast UUG start = alters start codon recognition fidelity in yeast. S. cerevisiae UUG-firefly luciferase reporter, luminescence/redox ratio. AID 602363. activity score, % at 18.7 µM. hit rate 0.13% among 350,000;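 active = replicate mean at a twofold rise or more, about +100% in these data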;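 note: firefly luciferase made from a UUG start codon reports start codon fidelity; reporter light over untreated wells divided by growth signal over untreated wells; some hits fall short of that in this replicate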
# FN deposition inh = fibronectin deposition inhibition. inhibition, % at 12.6 µM. AH1F fibroblasts, Alexa488-fibronectin deposition fluorescence, overnight. 350,000 tested, 0.086% active;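 active means mean inhibition across replicates of 30% or more, regardless of how many single replicates reach that level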;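 further: positive control wells lacked labelled fibronectin entirely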
#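 Measured by – fluorescence 485/525 nm · System – AH1F fibroblast monolayer, labelled fibronectin deposition · Amount – 10000 cells per well · Buffer or medium – serum-reduced DMEM (2% serum) · Doses – single dose, pinned · Also added – fluorescent fibronectin at 24 nM final · Schedule – 1 h cell attachment, overnight exposure to compound and label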
# Numbers without * were called inactive; · = no result given; [ ] = dose if it differs, or a comment. Only some compounds are listed: those with a hit (about 1.5% of all), similar ones and a draw of the others.
SMILES,PGC1a acetyl inh,HIV Env fusion,miR122 inh,Cneo AK release,Yeast UUG start,FN deposition inh
O=C(CSc1nnc(Cc2cccs2)n1Cc1ccco1)Nc1ccc(Cl)cc1Cl,-20,59*,21,-1,-8,13
CCOC(=O)N[C@H](C(=O)N1CCC[C@H]1C(=O)NCCc1ccccc1Cl)c1ccccc1,·,0,·,·,·,6
COC(=O)c1nn(-c2ccc3c(c2)OCO3)cc1O,8,-98,-2,·,·,·
COC(=O)c1nn(-c2ccc3c(c2)CCN3C(C)=O)cc1O,5,73*,2,3,-88,4
O=C(Nc1cc(Sc2nc3ccccc3s2)cc([N+](=O)[O-])c1)c1ccccc1,-4,18,-8,0,-26,2
O=C(Nc1cc(Sc2nc3ccccc3s2)cc([N+](=O)[O-])c1)c1ccccc1F,-17,-11,-7,1,-3,15*
C[C@@H]1CN([C@@H](C)CO)C(=O)c2ccccc2-c2ccccc2CO[C@@H]1CN(C)C(=O)c1ccncc1,-8,-21[16.7 µM],·,1,·,-3
Cc1ccc(C2Oc3ccccc3C3=C2C(c2cccs2)n2ncnc2N3)cc1 (stereo not given),3,102*,-3,0,-18,-11
COc1ccc(CNC(=O)c2cc(COc3c(F)cccc3F)on2)cc1OC,·,-4,·,·,·,5
O=C(NCCSc1ccccn1)c1ccc(Cl)cc1,-35,-67,3,-1,-39,·
CS(=O)(=O)N(Cc1ccc(Cl)cc1)c1ccc(C(=O)NCCSc2ccccn2)cc1,6,85*,1,0,0,-7
CS(=O)(=O)N(Cc1ccc(Cl)cc1)c1ccc(C(=O)Nc2cccnc2)cc1,·,60*,-1,0,-17,·
CCCCC(=O)N=c1sc2c(OC)ccc(OC)c2n1C,0,9,3,0,-9,0
CCCCCCCn1c(NC(=O)CC)nc2ccccc21,-3,72*,9,0,-35,8
CCCn1c(Nc2nc3ccccc3n2C)nc2ccccc21,3,140*,-10,-2,-54,15
CCC(=O)Nc1nc2ccccc2n1CCN1CCOCC1,-1,·,-6,1,-14,·
O=[N+]([O-])c1ccc(N/N=C/c2c[nH]c3ccccc23)c(S(=O)(=O)Nc2ccc(Cl)cc2)c1,-9,13,162*,-1,-15,·
O=C(CN(Cc1ccccc1)S(=O)(=O)c1cccc(C(F)(F)F)c1)NC1CCCCC1,·,63*,0,4,-19,-5
CC(c1ccccc1)N(CC(=O)NC1CCCCC1)S(=O)(=O)c1cccc(C(F)(F)F)c1 (stereo not given),-15,·,11,1,-22,-4
C[C@@H]1CN([C@@H](C)CO)C(=O)Cc2cc(NS(C)(=O)=O)ccc2O[C@H]1CN(C)CC1CC1,-7,2[16.7 µM],-4[16.7 µM],-11,-1,·
C[C@H](CO)N1C[C@H](C)[C@@H](CN(C)CC2CC2)Oc2ccc(NS(C)(=O)=O)cc2CC1=O,4,58*[16.7 µM],-5[16.7 µM],-9,-5,·
CNC[C@@H]1Oc2ccc(NS(C)(=O)=O)cc2CC(=O)N([C@H](C)CO)C[C@H]1C,3,65*[16.7 µM],-1[16.7 µM],2,0,·
CC(=NNc1ccc2ccccc2n1)c1ccccc1O,·,18,·,·,·,-10
CCOC(=O)C1=C(C)N=c2s/c(=C\c3cccc(OCC(=O)O)c3)c(=O)n2C1c1ccccc1OC (stereo not given),55*,12,·,2,-23,·
Clc1ccc2nc(-c3ccccc3)c(CN3CCOCC3)n2c1,·,-3,11,6,-20,·
O=S(=O)(c1ccc2c(c1)OCCO2)N1CCC(c2nc3ccc(Cl)cc3[nH]2)CC1,10,55*,1,-9,-1,-2
O=C(Cn1ncc2c(=O)oc3ccccc3c21)N1CCc2ccccc2C1,·,24,·,4,0,12
O=C(Cn1ncc2c(=O)oc3ccccc3c21)N1CCC(N2CCCCC2)CC1,-4,74*,0,-1,7,2
CC(=O)c1ccc(NS(=O)(=O)c2ccc3c(c2)N(C)CCO3)cc1,12,-2,134*,0,-17,-3
CC(=O)c1ccc(NS(=O)(=O)c2cc3c(cc2C)N(C)CCO3)cc1,-5,-1,71,7,5,2

# Some of these compounds in order of length of the SMILES, highest first:
SMILES,PGC1a acetyl inh,HIV Env fusion,miR122 inh,Cneo AK release,Yeast UUG start,FN deposition inh
C[C@H](CO)N1C[C@H](C)[C@@H](CN(C)CC2CC2)Oc2ccc(NS(C)(=O)=O)cc2CC1=O,4,58*[16.7 µM],-5[16.7 µM],-9,-5,·
CC(c1ccccc1)N(CC(=O)NC1CCCCC1)S(=O)(=O)c1cccc(C(F)(F)F)c1 (stereo not given),-15,·,11,1,-22,-4
COc1ccc(CNC(=O)c2cc(COc3c(F)cccc3F)on2)cc1OC,·,-4,·,·,·,5
Clc1ccc2nc(-c3ccccc3)c(CN3CCOCC3)n2c1,·,-3,11,6,-20,·
